This note sets out measurements from PubChem BioAssay AID602194 (The Scripps Research Institute Molecular Screening Center, 2012).

Sequences of proteins named here, by UniProt entry; tags and fusion partners are left off.
UniProt P35372, whole entry, looked up: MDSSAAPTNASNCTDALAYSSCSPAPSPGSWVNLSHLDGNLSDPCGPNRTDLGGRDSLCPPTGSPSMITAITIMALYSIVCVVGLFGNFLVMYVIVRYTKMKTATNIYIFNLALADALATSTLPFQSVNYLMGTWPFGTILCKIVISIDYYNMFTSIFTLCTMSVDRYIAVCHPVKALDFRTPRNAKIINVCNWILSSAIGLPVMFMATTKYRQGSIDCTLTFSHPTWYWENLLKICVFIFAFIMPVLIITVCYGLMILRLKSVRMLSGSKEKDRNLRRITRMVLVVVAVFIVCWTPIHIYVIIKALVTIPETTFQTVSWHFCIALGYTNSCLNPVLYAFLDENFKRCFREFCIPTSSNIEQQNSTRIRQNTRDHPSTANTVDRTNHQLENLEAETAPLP
UniProt P41143, whole entry, looked up: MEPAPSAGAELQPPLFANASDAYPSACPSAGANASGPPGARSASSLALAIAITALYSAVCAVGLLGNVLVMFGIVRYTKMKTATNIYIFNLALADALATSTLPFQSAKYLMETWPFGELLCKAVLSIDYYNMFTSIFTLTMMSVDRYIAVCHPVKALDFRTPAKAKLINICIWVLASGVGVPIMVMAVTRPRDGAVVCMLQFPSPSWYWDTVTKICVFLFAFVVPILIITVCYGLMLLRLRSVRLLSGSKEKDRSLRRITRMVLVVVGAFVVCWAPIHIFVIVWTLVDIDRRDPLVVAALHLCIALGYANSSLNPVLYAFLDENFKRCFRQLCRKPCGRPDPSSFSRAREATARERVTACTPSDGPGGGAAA

Molecules are shown by their SMILES. The entries are a selection whose mix differs from that of the whole data set. Active and inactive are the calls of the source.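 Rule for the calls: active = mean activation across replicates exceeds the hit threshold derived in the earlier primary screen (cut at about 18% in these data); inactive = the rest.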

The target in the assay is Mu-type opioid receptor (Homo sapiens) + Delta-type opioid receptor (Homo sapiens) (UniProt P35372+P41143). Kind of assay: agonists of MOR-DOR heterodimerization, counter-screen for MC4R biased agonist project, cell-based, luminescence (AID 602194).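 Note: 100% = deltorphin B at 0.9 µM final and 0% = DMSO alone.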 Particulars: U2OS PathHunter beta-arrestin, beta-gal luminescence; at 9.2 µM; hits give high values; percent of deltorphin B response, DMSO zero.
`N=c1n(CCN2CCCCC2)c2ccccc2n1CC(=O)c1cccc([N+](=O)[O-])c1`: the activation was inactive: 7.01%.

In the case of `CCC(C)c1ccc2oc(-c3ccc(NC(=O)Cn4cnc5c(=O)n(C)c(=O)n(C)c54)cc3)nc2c1` (configuration not stated), the activation was inactive: 9.2%.
